In the experiment the target is T1, rat NAAA (r-NAAA) (Rattus norvegicus, UniProt Q5KTC7).
T1 sequence (Q5KTC7 131-362 limits assumed): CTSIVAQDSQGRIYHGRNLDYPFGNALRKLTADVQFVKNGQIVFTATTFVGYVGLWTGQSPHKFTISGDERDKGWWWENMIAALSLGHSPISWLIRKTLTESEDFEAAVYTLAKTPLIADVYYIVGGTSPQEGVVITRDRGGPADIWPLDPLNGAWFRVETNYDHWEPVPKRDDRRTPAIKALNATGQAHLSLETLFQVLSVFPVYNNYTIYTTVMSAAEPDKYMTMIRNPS
T1 sequence (Q5KTC7 34-130 limits assumed): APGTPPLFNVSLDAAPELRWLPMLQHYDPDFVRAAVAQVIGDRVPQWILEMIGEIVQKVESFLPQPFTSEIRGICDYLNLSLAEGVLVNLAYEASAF
Kind of experiment: Rat NAAA activity inhibition. Type of experiment: biochemical.

SMILES strings stand for the structures.

Turning to `O=C(N[C@H]1CNC1=O)OCCCCC1CCCCC1` [Compound 6, 4-Cyclohexylbutyl-N-[(S)-2-oxoazetidin-3-yl]carbamate], the half-inhibitory concentration (IC50) (usually the concentration needed to halve the response being measured) stood at 0.063 ± 0.015 µM. Next, `O=C(N[C@@H]1CNC1=O)OCCCCC1CCCCC1` [Compound 7, 4-Cyclohexylbutyl-N-[(R)-2-oxoazetidin-3-yl]carbamate]: around 3.1 µM.

For the origin of these results see PMC4546552 (ACS chemical biology, 2015).
